Earlier results in patent US20240173460A1, “STORAGE SOLUTIONS FOR MAINTAINING OF AXONAL VIABILITY” (Board of Regents, The University of Texas System, priority 2022, published 2024).

solubility in water: soluble in water
Substance: sodium acetate, anhydrous
